ChEMBL document CHEMBL1145940, “Computer modeling of selective regions in the active site of nitric oxide synthases: implication for the design of isoform-selective inhibitors” (J Med Chem, 2003)

Assays:
[1] = Inhibitory activity against endothelial nitric oxide synthase (eNOS)
[2] = Inhibitory activity against Inducible nitric oxide synthase
[3] = Selectivity for neuronal over endothelial nitric oxide synthase
[4] = Inhibitory activity against neuronal nitric oxide synthase

| Compound | Ki [1] [µM] | Ki [2] [µM] | Selectivity [3] | Ki [4] [µM] |
| --- | --- | --- | --- | --- |
| NCCc1ccc(NC[C@@H](N)CCC/N=C(\N)N[N+](=O)[O-])cc1 | 414 | 360 |  |  |
| NCCc1cccc(NC[C@@H](N)CCC/N=C(\N)N[N+](=O)[O-])c1 | 100 | 260 | 45.2 | 2.21 |
